Experimental findings from PubChem BioAssay AID504842 (National Center for Advancing Translational Sciences (NCATS), 2011) are described below.

This is a selection; strong and weak results do not stand in their true shares. Activity calls are given as the source filed them. Calls come from the whole dose curve; as a rule, active = well fitted inhibition curve with a large enough effect; inconclusive = small, poorly fitted or top-dose-only effect; inactive = flat fitted curve, though single readings scatter.
% is set by controls: 0 for no effect and ±100 for the full control effect.

In this test the test system is Chaperonin Mm-Cpn (Methanococcus maripaludis). The test can be described thus: Inhibitors of TCP-1 ring complex (TRiC) of Methanococcus maripaludis (MmCpn): qHTS. Note: nearly all actives have a fitted effect of over 80% in size. Particulars: purified Mm-Cpn ATPase, ADP Transcreener TR-FRET; at 76.9 µM (top of the series). An excerpt: The eukaryotic chaperonin TRiC (for TCP-1 ring complex) is an essential and conserved chaperone required for the folding and activation of 10-15% of the proteins encoded by the human genome. […] The TRiC complex consist of two stacked 7-9 membered rings, each containing a central cavity. Substrates are folded within the cavity in an ATP-dependent manner. TRiC is a complex of eight different, essential proteins. As each of the genes encoding the eight subunits is essential for cell viability and no protocol has been developed to over-express this enzyme to high levels. That is why several groups studying the TRiC chaperonin have turned to the archaeal homolog of TRiC, Methanococcus maripaludis (Mm-CPN), and have used this enzyme as a model system for the study of the type II chaperonin family. Small molecule inhibitors of the Mm-CPN enzyme would be extremely useful to study the mechanism of chaperonin activity. Importantly, TRiC and Mm-CPN both require ATP hydrolysis for function. Furthermore, the ATP binding sites are highly conserved among these type II chaperonins. This provides us with an easy, well tested and straightforward assay to identify inhibitors of chaperonin activity. The Mm-CPN assay was developed in 1536-well plate format using the HTRF Transcreener ADP assay kit (Cisbio, Bedford, MA). This assay applied the time resolved fluorescence resonance energy transfer (TR-FRET) principle. ATP in the presence of Mm-CPN is converted to ADP + Pi. An antibody labeled with Eu3+-Cryptate specific and bound to ADP labeled with […] (d2) competes with the unlabeled ADP generated by Mm-CPN. The resulting TR-FRET signal is inversely proportional to the concentration of ADP in the sample. In this assay a reduction in TR-FRET signal is observed with ATP turnover. NIH Chemical Genomics Center [NCGC] NIH Molecular Libraries Probe Centers Network [MLPCN] MLPCN Grant: DA030554-01A1 Assay Submitter (PI): Judith Frydman, Stanford University
Purified Mm-CPN was supplied by the laboratory of Dr. Judith Frydman. Protein samples were stored at -80C as single use aliquots. Protein was thawed in ambient temperature water bath and placed on ice once thawed. Buffer was prepared fresh day of screen. The buffer composition below was used to prepare the working solution of the Mm-CPN protein and ATP substrate. The buffer is comprised of 30 mM TRIS pH 7.4, 100mM KCl, 5mM MgCl2, and 1mM DTT. A final concentration of 25nM Mm-CPN and 10uM ATP per well were used in the screen. Instructions according to the manufacturer were followed for the ADP Transcreener kit. Used 1536 well Greiner white, medium binding (MB), solid bottom plates. Plates were read on the PerkinElmer EnVision plate reader using Excitation = 320 nm and Emission = […], 665 nm. Protocol- 1.Dispense 1.5ul per well of working [Mm-CPN] = 50nM (or 75 ng / well) 2.Spin plate at 1000 rpm for 30 seconds 3.23nl of compound transferred per well 4.Incubate at 37degC for 10 minutes 5.Dispense 1.5ul per well of working [ATP] = 20uM 6.Incubate at 37degC for 30 minutes 7.Dispense 3ul per well of Anti-ADP Cryptate / ADP-d2 mix (prepared as instructed by Cisbio) 8.Incubate at ambient for 30 minutes 9.Read using EnVision
(qHTS replaces the single test concentration by a dilution series.)
Turning to `Cc1ccc(NCCc2c([N+](=O)[O-])cc([N+](=O)[O-])cc2[N+](=O)[O-])cc1`, the activity, negative = inhibition was inactive: -6.73%. Consider `Nc1cccc2c([As](=O)(O)O)cccc12`, for which the activity, negative = inhibition was inactive: -8.61%. Then `CCCOP(=S)(Nc1nc(N)cc(=O)[nH]1)OCCC`, with inactive: 2.91%; and `CCOP(=O)(Nc1cccc2ccccc12)OCC`, with inactive: -3.64%. `COc1cc(C2NCCC3(OCCO3)C2(C)C)cc(OC)c1OC` (stereo not given): the activity, negative = inhibition is inactive: 2.92%.

Take `O=C(OC1CN2CCC1CC2)c1ccc(Cl)cc1` (stereo not given): the activity, negative = inhibition is inactive: 0.811%.

`CS(=O)(=O)c1ccc(Cl)c(NC(=O)COC(=O)C(O)(c2ccccc2)c2ccccc2)c1`: the activity, negative = inhibition is inactive: 2.99%. In the case of `COc1cc(C(=O)NCC2(N3CCOCC3)CCCCC2)cc(Cl)c1OC(C)C`, the activity, negative = inhibition was inactive: 0.365%. Then `O=[As](O)(O)c1cccnc1`, with inactive: -1.43%; and `O=[As](O)(c1cccc(O)c1)c1cccc(O)c1`, with inactive: 1.05%. Then `NC(=O)Nc1ccc([As](=O)(O)O)cc1`, with inactive: 2.28%; and `CCOP1(=S)c2c(C)nn(CCC#N)c2N=C(c2ccc(F)cc2)N1C` (stereo not given), with inactive: 0.798%.

Turning to `CN(C(=O)Cc1ccccc1)[C@@H]1CC[C@]2(CCCO2)C[C@H]1N1CCCC1`, the activity, negative = inhibition is inactive: 2.41%.

For `N#CCCN(C(=O)COC(=O)C(O)(c1ccccc1)c1ccccc1)c1ccc(F)cc1`, the activity, negative = inhibition was inactive: 1.83%. As to `O=[N+]([O-])c1ccc2c(c1)nnn2O`, the activity, negative = inhibition was inactive: 0.0351%. Consider `O=P(Nc1nccs1)(Oc1ccccc1)Oc1ccccc1`, for which the activity, negative = inhibition was inactive: 2.29%. `CCOP1(=S)c2c(C)nn(CCC#N)c2N=C(c2ccccc2F)N1C` (stereo not given): the activity, negative = inhibition is inactive: -1.55%. For `CS(=O)(=O)c1cc([N+](=O)[O-])c2no[n+]([O-])c2c1`, the activity, negative = inhibition is inactive: -1.97%.

Take `Nc1ccccc1[As](=O)(O)c1ccccc1`: the activity, negative = inhibition is inactive: 0.51%. For `O=C(O)COc1ccc([As](=O)(O)O)cc1[N+](=O)[O-]`, the activity, negative = inhibition was inactive: 0.455%.

As to `O=P1(Nc2ncccn2)COc2ccccc2OC1`, the activity, negative = inhibition was inactive: -1.25%. Then `Nc1cccc([As](=O)(O)c2ccccc2)c1`, with inactive: 1.92%. The result for `O=P1(Nc2ccc(Br)cn2)COc2ccccc2OC1` reads inactive: 1.47%. The result for `NS(=O)(=O)c1cccc(NC(=O)COC(=O)C(O)(c2ccccc2)c2ccccc2)c1` reads inactive: 0.556%; that for `Cc1ccc(OCC(=O)OC2CN3CCC2CC3)cc1` (stereo not given), inactive: 0.475%; that for `O=[As](O)(c1cccs1)c1cccs1`, inactive: 0.401%. For the compound `CC1CCC(C(C)C)C(OP(=O)(Nc2ccccn2)c2ccccc2)C1` (stereo not given), the activity, negative = inhibition is inactive: -1.16%. On to `Cc1ccc(C(=O)OC2CN3CCC2CC3)cc1` (stereo not given), for which the activity, negative = inhibition is inactive: -2.3%. Regarding `Cc1nn(-c2ccccc2)c2c1P(=O)(N1CCOCC1)N(C)C(c1ccccc1)=N2` (stereo not given), the activity, negative = inhibition was inactive: -0.936%. The result for `CN(C)C1(CNC(=O)c2ccc(S(C)(=O)=O)cc2)CCCCC1` reads inactive: -0.958%. Then `O=C(/C=C/c1ccccc1)OC1CN2CCC1CC2` (stereo not given), with inactive: -2.57%. Then `COc1ccccc1CNC(=O)COC(=O)C(O)(c1ccccc1)c1ccccc1`, with inactive: 4.25%. As to `CC(C)/C=N\N=C(\N)N[N+](=O)[O-]`, the activity, negative = inhibition is inactive: 0.37%. Then `CN(C(=O)Cc1ccc(Cl)c(Cl)c1)[C@@H]1CCCC[C@H]1N1CCCC1`, with inactive: -6.11%. Regarding `O=[As](O)(c1ccccc1Br)c1ccccc1Br`, the activity, negative = inhibition was inactive: -2.63%. As to `CCOP(=O)(NC(=NC(C)c1ccccc1)NC(C)c1ccccc1)OCC` (stereo not given), the activity, negative = inhibition was inactive: 0.528%. For the compound `O=P1(Nc2ccccn2)COc2ccccc2OC1`, the activity, negative = inhibition was inactive: 0.0467%. In the case of `CCC1=CC2Cc3nc4ccc(Cl)cc4c(N)c3C(C1)C2` (stereo not given), the activity, negative = inhibition was inactive: -0.188%. The result for `CCOP(=O)(Nc1ccc(C)cn1)OCC` reads inactive: 1.23%; that for `CC(C)(C)C(=O)NC(Sc1ncccn1)C(Cl)(Cl)Cl` (stereo not given), inactive: 1.15%. As for `Clc1n[nH]nc1-c1nn[nH][15n]1`, the activity, negative = inhibition is inactive: 1.45%. In the case of `O=C(OC1CN2CCC1CC2)c1cccc([N+](=O)[O-])c1` (stereo not given), the activity, negative = inhibition was inactive: 0.187%. Then `CCOC(=O)c1ccc(NC(=O)C(C)(CCl)SC)cc1` (stereo not given), with inactive: -2.69%; and `CCC(C)N(CC(C)C)C(=S)SC(NC(C)=O)C(Cl)(Cl)Cl` (stereo not given), with inactive: -1.63%. The result for `COP1(=S)c2c(C)nn(CCC#N)c2N=C(c2ccc(F)cc2)N1C` (stereo not given) reads inactive: 0.943%; that for `O=C(Nc1ccncc1[N+](=O)[O-])c1ccc([N+](=O)[O-])cc1[N+](=O)[O-]`, inactive: 0.413%.

As to `O=C(COc1ccccc1)OC1CN2CCC1CC2` (stereo not given), the activity, negative = inhibition is inactive: -1.13%. The result for `CCOC(=O)Nc1cccc([As](=O)(O)O)c1` reads inactive: -3.69%; that for `O=P(Nc1ccccn1)(c1cccc2ccccc12)c1cccc2ccccc12`, inactive: -3.43%; that for `Cc1cc(SC(NC=O)C(Cl)(Cl)Cl)ncn1` (stereo not given), inactive: -0.424%.
